pEC50, pKd: −log10 of the molar value.
Assays:
[1] = target: T1, D2R S193^5.42A (human dopamine D2S receptor mutant) (Homo sapiens, UniProt P14416, S193A); experiment: cell-based
[2] = target: T2, WT D2R (human dopamine D2S receptor) (Homo sapiens, UniProt P14416); experiment: cell-based; details: GIRK activation, perfusion 1 mL/min
[3] = target: T1, D2R S193^5.42A (human dopamine D2S receptor mutant); experiment: cell-based; remark: listed apart in the source
[4] = target: T2, WT D2R (human dopamine D2S receptor); experiment: GIRK current activation rate (kobs) vs agonist concentration (kon estimate), WT D2R; format: cell-based

Protein sequences, listed by entry. Tags and fused reporters are not part of them. Residues count along the entry.
UniProt P14416, 1-414 isoform P14416-2 S193A: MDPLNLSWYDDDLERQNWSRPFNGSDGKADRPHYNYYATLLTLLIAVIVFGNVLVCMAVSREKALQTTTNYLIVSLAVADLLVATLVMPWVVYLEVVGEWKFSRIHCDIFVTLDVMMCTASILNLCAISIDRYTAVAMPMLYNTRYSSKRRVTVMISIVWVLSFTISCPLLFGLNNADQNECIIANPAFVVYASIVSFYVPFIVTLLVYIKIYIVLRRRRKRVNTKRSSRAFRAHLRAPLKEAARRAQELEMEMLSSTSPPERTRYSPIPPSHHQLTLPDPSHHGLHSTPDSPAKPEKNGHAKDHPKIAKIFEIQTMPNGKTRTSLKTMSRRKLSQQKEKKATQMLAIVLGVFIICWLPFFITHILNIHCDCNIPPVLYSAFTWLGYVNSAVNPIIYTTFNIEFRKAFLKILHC
UniProt P14416, 1-414 isoform P14416-2: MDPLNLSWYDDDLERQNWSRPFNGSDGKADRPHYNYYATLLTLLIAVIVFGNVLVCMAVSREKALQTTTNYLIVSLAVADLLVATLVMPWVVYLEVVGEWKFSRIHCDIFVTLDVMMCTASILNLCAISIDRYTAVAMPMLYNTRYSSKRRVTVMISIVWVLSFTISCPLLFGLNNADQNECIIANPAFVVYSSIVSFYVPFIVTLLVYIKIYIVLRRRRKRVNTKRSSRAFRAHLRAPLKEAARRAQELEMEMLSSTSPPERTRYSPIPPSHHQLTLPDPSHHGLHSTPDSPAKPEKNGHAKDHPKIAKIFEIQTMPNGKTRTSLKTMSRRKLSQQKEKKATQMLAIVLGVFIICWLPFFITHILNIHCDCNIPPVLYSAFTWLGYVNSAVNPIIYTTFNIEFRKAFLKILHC

| Compound | pKd [1] | pEC50 ([2]; EC50, WT D2R) | pEC50 [3] | pKd [4] | pEC50 ([2]; pEC50 ± SEM, WT D2R) |
| --- | --- | --- | --- | --- | --- |
| CCCN(CCC)[C@@H]1CCc2c(O)cccc2C1 [(R)-5-OH-DPAT, (R)-5-OH-dipropylaminotetralin] | 7.45 | 6.85 | 7.07 | 7.46 | – |
| CCCN(CCC)[C@H]1CCc2c(O)cccc2C1 [(S)-5-OH-DPAT, (S)-5-OH-dipropylaminotetralin] | 7.47 | 8.30 | 6.56 | 9.01 | 8.28 |

— article PMC8071183 (International Journal of Molecular Sciences, 2021)
